Values quoted from earlier work as cited in patent US20230338417A1, “Improved Pharmaceutical Preparation” (priority 2020, published 2023).

chlorous acid
Acid dissociation constant as pKa at 298K: 2
